From patent publication US20170276611A1, “CHALCOGENOPYRYLIUM DYES, COMPOSITIONS COMPRISING SAME, COMPOSITE NANOPARTICLES COMPRISING SAME, AND METHODS OF MAKING AND USING THE SAME” (The Research Foundation for The State University of New York, priority 2014, published 2017)

System: A431 tumor xenograft
Test: In vivo Raman imaging of EGFR-targeted SERRS-nanoprobes
Conditions: A431 xenograft nude mice, 15 fmol/g per probe i.v., 18 hours, imaged in situ
Procedure: In vivo comparison of EGFR-targeted CP-3- or IR792-SERRS-nanoprobes. The ability of our SERRS-nanoprobe to delineate tumor tissue in vivo was assessed by utilizing CP dye 3 and IR792-based SERRS-nanoprobes functionalized with an epidermal growth factor receptor (EGFR)-targeting antibody. Equimolar amounts (15 fmol/g) of these two EGFR-targeted nanoprobes were injected intravenously into athymic nude mice which had been inoculated two weeks prior with the EGFR-overexpressing cell line A431 (1×10^6 cells). After 18 hours, the skin around the tumor was carefully peeled back and multiplexed Raman imaging the tumor site and surrounding tissue was performed (FIG. 20-21). A Raman map was generated and the signals from the multiplexed SERRS-Nanoprobes were deconvoluted by applying a direct classical least square algorithm (DCLS). The SERRS-signal from both nanoprobes was more intense for the tumor site than for the surrounding tissue, showing that the EGFR-targeted SERRS-nanoprobes had selectively localized at the tumor site. […] In addition, to validate EGFR targeting, we injected A431-tumor bearing mice with cetuximab (50 pmol/g) 3 hours prior to injection with the EGFR-targeted SERRS-nanoprobes.
In vivo comparison of EGFR-targeted CP-3- or IR792-SERRS-nanoprobes. Female athymic nude mice (n=5) were inoculated with the EGFR-overexpressing cell line A431 (1×10^6 cells). […]

Question: Which “SERRS signal at the tumor” value does the source give for “EGFR-targeted IR792-based SERRS-nanoprobe: IR792-based silica-gold SERRS-nanoprobe conjugated to EGFR-targeting antibody cetuximab through a 4000 Da PEG linker [reference compound]” here?
Answer: 7.313 cps/cm^2
